Assay results: patent US8633212B2, “Inhibitors of beta-secretase” (Vitae Pharmaceuticals, Inc., priority 2009, dated 2014)

Target: ectodomain of BACE (aa 1-454) fused to a myc-his tag, secreted from HEK293/BACEect. cells (Homo sapiens (Human), UniProt P56817)
Test: biochemical

CC(C)N1C(=O)C2(N=C1N)c1ccccc1CC21CCc2ccccc2CC1 (stereo not shown) [Compound 410]
IC50: 566 nM
